Experimental data published in paper PMC9411691, “Protein-Ligand Identification and In Vitro Inhibitory Effects of Cathine on 11 Major Human Drug Metabolizing Cytochrome P450s” (International Journal of Toxicology, 2022).
Counter-ions that a name gives are not always drawn.

Chains of the proteins cited; added tags and fusions are not shown.
UniProt P10635, whole entry: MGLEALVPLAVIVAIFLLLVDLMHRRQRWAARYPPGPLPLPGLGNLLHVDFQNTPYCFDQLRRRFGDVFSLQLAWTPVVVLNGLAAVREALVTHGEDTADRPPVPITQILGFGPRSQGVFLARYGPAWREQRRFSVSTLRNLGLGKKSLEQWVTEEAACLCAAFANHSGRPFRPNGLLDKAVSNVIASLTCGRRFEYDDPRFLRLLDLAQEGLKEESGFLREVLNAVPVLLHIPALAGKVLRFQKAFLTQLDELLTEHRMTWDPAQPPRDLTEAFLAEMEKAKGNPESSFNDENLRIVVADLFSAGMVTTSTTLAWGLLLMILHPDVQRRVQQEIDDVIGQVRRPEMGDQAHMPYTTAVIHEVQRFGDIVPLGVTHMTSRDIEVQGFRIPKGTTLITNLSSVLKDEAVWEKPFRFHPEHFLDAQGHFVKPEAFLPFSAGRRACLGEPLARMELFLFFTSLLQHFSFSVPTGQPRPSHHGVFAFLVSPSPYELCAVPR

Legend:
CYP1A2 = biological target: T1, CYP1A2 (Homo sapiens, UniProt P05177); assay: Vivid CYP450 fluorescence-based inhibition assay, CYP1A2; conditions: pH 8, probe Vivid EOMCC (ethoxymethyloxy-3-cyanocoumarin)
T1 sequence (P05177 2-516 limits assumed): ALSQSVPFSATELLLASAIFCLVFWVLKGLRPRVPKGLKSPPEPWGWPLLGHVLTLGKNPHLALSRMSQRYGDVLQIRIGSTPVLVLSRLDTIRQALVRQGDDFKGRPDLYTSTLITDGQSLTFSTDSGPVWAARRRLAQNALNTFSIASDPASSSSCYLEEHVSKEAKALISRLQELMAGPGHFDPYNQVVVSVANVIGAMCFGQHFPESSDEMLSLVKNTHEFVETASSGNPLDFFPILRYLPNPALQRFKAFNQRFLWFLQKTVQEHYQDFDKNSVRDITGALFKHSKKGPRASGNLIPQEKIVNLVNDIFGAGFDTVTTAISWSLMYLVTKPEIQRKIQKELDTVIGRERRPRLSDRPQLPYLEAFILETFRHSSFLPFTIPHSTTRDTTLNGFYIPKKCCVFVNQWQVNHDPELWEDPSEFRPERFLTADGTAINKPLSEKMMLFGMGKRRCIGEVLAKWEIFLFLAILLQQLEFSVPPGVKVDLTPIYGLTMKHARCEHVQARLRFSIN

CYP2D6 = CYP2D6 (Homo sapiens, UniProt P10635); assay: Vivid CYP450 fluorescence-based inhibition assay, CYP2D6; conditions: pH 8, probe Vivid EOMCC (ethoxymethyloxy-3-cyanocoumarin)

With `C[C@H](N)[C@@H](O)c1ccccc1` [Cathine, (1 S, 2 S)-2-amino-1-phenylpropan-1-ol.hydrochloride] as the compound, how does the IC50 shift at 60 min (CYP1A2) read?
Its IC50 shift at 60 min is 1.12.

And the IC50 shift at 60 min (CYP2D6)?
The IC50 shift at 60 min was 0.51.
